# scFv variants of Ab-95 (light chain) against a SARS-CoV-2 spike peptide

Reference: Engelhart et al. 2022, doi:10.1038/s41597-022-01779-4. File: FLAb, binding data.

Target peptide (SARS-CoV-2 spike, HR2 region): PDVDLGDISGINAS

Parent: Ab-95, a human scFv built as VH, a 15-residue (Gly4Ser)3 linker, VL. Only the CDRs of the light chain vary.
VH: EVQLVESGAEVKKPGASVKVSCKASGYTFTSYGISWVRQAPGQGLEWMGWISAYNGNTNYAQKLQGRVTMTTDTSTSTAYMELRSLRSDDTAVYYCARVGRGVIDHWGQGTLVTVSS
VL: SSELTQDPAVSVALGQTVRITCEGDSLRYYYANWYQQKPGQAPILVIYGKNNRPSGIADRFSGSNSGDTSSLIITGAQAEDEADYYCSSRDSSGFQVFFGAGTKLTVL

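The parent was found by panning a naive human phage display library on the peptide. Variants in AAYL52 differ from the parent at up to three CDR positions; double and triple changes were sampled at random. The scFvs were displayed on barcoded MATa yeast, the peptide on MATalpha yeast. After mating in shaken culture at 30 °C for 16 h, diploids were selected and their barcode pairs sequenced. The ratio of observed to expected reads was calibrated, replicate by replicate, on BCL2-family standards whose Kd was known from biolayer interferometry. The assay was run in three technical replicates.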

The whole VL of each variant is written out.
Scale: log10 of Kd in nM, estimated from mating counts; low values are strong binders.
A mean of the replicates is given; it leaves out those without a signal.
An entry "no signal" has no value in the source: the pair was not observed among the diploids in any replicate. This suggests poor binding but is not conclusive.
Empty control strains, which show no peptide, gave a signal in 28% of pairings with library AAYL52; the median was 3.91 and 95% of these signals were weaker than 2.90. No background was subtracted. Also given: how often the same scFv was detected with the empty control strains.
Parent in this assay: reference entry 2.31, copy in this library 2.25.

VL,"log10 Kd (nM), mean",seen in,control signals
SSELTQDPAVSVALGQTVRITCQGDSLRYYYANWYQQKPGQAPILVIYGKNNRKSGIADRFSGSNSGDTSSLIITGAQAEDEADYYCSSRDSSWFQVFFGAGTKLTVL,3.74,1/3,2/9
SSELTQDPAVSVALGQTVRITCEGDSLRYYYANWYQQKPGQAPILVIYGVNNRPSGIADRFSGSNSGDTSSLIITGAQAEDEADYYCSSRDSSGYQVFFGAGTKLTVL,1.99,3/3,0/9
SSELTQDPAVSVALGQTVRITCEGRSLRYYYVNWYQQKPGQAPILVIYGKNNRPSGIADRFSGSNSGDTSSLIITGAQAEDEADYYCSSRDSSGFQVFFGAGTKLTVL,2.44,3/3,3/9
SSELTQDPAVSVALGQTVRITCEGDSLRYYYANWYQQKPGQAPILVIYGKNNRASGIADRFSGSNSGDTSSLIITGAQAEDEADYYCSSRDSSYFWVFFGAGTKLTVL,2.76,3/3,3/9
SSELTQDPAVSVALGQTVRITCYGASLRYYYANWYQQKPGQAPILVIYGKNNRPSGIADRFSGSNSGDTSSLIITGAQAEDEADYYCSSRDSSGNQVFFGAGTKLTVL,3.11,3/3,2/9
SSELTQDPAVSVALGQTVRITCFGDSLRYGYANWYQQKPGQAPILVIYGINNRPSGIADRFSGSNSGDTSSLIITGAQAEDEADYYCSSRDSSGFQVFFGAGTKLTVL,1.46,3/3,3/9
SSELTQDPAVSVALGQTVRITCEGDTLRYYYANWYQQKPGQAPILVIYGKNNRPSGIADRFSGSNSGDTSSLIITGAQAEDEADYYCSSRDSSGDQVKFGAGTKLTVL,3.55,2/3,1/9
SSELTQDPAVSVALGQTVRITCEGDSLRYYYALWYQQKPGQAPILVIYGKNNRPSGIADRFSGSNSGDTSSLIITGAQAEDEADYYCSSRDSVGFQVKFGAGTKLTVL,4.38,2/3,1/9
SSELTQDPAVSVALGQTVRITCEGDDLRYYYANWYQQKPGQAPILVIYGKNNRPIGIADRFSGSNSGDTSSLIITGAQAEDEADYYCSSRDSSGFQWFFGAGTKLTVL,3.14,3/3,3/9
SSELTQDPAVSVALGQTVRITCEPDSLRYYYANWYQQKPGQAPILVIYGKNNYPSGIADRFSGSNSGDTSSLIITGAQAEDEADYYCSSKDSSGFQVFFGAGTKLTVL,no signal,0/3,3/9

The remaining entries, values ahead:

"log10 Kd (nM), mean",seen in,control signals,VL
2.76,1/3,2/9,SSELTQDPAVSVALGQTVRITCEGDSLRYYYANWYQQKPGQAPILVIYGWGNRPSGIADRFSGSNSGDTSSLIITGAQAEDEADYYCSSRDSSGHQVFFGAGTKLTVL
no signal,0/3,0/9,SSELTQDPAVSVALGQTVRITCEGWSLRYYYANWYQQKPGQAPILVIYGKNNRPSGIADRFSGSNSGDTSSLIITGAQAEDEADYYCRSRDGSGFQVFFGAGTKLTVL
no signal,0/3,1/9,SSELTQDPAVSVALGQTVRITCEGDSLRYYYANWYQQKPGQAPILVIYGKNRRPSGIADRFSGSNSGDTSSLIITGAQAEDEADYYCSSRDGSGWQVFFGAGTKLTVL
2.57,3/3,3/9,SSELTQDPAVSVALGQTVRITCEGISLRYYYANWYQQKPGQAPILVIYGKNNRPSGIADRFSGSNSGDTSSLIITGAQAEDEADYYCAIRDSSGFQVFFGAGTKLTVL
2.11,3/3,1/9,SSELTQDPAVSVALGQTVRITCEGDSLRYDYANWYQQKPGQAPILVIYGKNYRCSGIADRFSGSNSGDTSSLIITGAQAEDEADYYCSSRDSSGFQVFFGAGTKLTVL
3.95,3/3,3/9,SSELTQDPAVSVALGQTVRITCEGDQLRYYYANWYQQKPGQAPILVIYGKNNQPSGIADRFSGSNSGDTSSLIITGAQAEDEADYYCSSRDSSGVQVFFGAGTKLTVL
2.63,3/3,3/9,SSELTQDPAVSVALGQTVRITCLGDSLRYYRANWYQQKPGQAPILVIYGKNNRPSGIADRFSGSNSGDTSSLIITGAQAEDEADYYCSSRDMSGFQVFFGAGTKLTVL
3.53,2/3,1/9,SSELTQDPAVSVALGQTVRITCEGDSLRYYYQNWYQQKPGQAPILVIYGKNNRPSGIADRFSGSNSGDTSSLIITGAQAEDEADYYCSLRDGSGFQVFFGAGTKLTVL
3.28,3/3,3/9,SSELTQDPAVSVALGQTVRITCEGDSLKLYYANWYQQKPGQAPILVIYGKNNRMSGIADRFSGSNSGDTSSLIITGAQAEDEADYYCSSRDSSGFQVFFGAGTKLTVL
3.48,1/3,1/9,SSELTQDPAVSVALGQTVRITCEGDSLRYVYANWYQQKPGQAPILVIYGKNNRKSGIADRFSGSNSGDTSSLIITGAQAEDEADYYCSSRDSSGIQVFFGAGTKLTVL

The opening 2 entries, copied out:

VL,"log10 Kd (nM), mean",seen in,control signals
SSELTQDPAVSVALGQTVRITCQGDSLRYYYANWYQQKPGQAPILVIYGKNNRKSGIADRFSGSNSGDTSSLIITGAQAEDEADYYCSSRDSSWFQVFFGAGTKLTVL,3.74,1/3,2/9
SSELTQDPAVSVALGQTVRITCEGDSLRYYYANWYQQKPGQAPILVIYGVNNRPSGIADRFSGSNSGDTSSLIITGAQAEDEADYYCSSRDSSGYQVFFGAGTKLTVL,1.99,3/3,0/9